Laboratory results reported in the supplement of paper PMC11403291.

By UniProt entry, the sequences of proteins in these tests, tags left out. Where a name states a change or a piece, a line headed by the entry shows the natural chain unless it says otherwise.
UniProt Q15303, whole entry: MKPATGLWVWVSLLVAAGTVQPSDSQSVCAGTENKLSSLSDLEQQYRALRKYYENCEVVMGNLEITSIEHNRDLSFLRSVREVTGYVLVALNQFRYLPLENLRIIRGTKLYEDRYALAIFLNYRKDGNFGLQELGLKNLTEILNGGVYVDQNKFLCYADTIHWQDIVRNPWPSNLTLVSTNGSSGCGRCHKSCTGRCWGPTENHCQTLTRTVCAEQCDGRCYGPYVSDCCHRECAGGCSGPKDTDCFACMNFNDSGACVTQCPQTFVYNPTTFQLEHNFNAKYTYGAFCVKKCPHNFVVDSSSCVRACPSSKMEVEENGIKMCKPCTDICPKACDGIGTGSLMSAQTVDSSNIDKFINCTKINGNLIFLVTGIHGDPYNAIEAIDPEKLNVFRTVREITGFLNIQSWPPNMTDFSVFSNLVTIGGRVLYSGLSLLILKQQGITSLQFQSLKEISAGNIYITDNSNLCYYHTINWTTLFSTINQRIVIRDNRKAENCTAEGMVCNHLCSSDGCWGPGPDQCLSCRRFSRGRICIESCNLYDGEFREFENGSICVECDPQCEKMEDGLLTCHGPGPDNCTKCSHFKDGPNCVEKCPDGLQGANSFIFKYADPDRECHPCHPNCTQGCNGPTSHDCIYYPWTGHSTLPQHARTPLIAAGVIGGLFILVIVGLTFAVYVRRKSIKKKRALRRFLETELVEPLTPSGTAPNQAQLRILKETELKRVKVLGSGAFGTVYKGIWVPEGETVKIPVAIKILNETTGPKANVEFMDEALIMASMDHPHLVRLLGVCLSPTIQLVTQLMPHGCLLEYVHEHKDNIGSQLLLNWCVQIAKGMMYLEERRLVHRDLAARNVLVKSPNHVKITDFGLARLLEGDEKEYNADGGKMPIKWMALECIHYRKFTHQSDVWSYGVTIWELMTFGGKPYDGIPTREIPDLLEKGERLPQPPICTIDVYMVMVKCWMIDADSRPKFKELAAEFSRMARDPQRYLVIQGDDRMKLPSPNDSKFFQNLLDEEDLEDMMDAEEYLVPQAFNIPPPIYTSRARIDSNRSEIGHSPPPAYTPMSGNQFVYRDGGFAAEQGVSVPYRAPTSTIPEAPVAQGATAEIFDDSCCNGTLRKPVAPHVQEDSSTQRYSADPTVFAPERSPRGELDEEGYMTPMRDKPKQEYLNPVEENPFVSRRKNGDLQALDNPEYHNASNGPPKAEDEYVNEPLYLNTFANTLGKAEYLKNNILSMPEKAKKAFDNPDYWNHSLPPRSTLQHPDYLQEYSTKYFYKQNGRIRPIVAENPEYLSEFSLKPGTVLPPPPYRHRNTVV
UniProt Q05655: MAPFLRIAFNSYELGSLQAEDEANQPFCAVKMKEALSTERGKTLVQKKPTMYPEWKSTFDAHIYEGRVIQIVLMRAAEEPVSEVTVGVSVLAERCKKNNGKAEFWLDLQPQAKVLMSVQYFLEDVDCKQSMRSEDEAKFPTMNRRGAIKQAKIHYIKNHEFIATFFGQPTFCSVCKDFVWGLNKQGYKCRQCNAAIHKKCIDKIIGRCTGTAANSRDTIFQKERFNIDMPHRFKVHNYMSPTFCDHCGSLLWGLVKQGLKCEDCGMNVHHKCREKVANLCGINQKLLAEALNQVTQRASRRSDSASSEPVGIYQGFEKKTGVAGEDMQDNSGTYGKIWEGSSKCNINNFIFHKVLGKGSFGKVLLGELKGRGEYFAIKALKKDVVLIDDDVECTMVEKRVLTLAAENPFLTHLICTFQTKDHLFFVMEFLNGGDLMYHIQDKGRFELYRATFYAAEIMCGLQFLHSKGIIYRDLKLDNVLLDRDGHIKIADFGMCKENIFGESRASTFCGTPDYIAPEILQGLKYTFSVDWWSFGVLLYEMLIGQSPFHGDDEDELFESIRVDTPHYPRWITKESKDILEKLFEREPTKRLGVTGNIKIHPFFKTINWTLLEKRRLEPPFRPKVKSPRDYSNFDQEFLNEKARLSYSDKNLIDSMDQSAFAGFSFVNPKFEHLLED

Key:
Assay in all cases: apparent dissociation constant pKd app (kinobead competition) (-log10(M)); higher = stronger binding
CHEK1 = molecular target: T1, CHEK1 (UniProt O14757)
T1 sequence (whole entry): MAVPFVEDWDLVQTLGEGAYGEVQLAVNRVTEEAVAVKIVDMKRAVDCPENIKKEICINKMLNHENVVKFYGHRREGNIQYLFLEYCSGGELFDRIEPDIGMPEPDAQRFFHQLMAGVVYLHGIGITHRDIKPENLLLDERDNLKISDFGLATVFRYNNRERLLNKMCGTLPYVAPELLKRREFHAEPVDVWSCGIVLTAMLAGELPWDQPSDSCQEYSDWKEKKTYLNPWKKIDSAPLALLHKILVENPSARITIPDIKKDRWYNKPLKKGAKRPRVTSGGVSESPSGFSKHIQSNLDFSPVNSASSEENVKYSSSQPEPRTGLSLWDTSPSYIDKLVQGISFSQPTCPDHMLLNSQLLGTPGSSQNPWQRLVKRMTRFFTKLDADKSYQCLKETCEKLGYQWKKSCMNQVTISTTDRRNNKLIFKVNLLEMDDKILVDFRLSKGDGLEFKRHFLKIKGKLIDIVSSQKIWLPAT

ERBB4 = ERBB4 (UniProt Q15303)
GSG2 = molecular target: T2, GSG2 (UniProt Q8TF76)
T2 sequence (whole entry): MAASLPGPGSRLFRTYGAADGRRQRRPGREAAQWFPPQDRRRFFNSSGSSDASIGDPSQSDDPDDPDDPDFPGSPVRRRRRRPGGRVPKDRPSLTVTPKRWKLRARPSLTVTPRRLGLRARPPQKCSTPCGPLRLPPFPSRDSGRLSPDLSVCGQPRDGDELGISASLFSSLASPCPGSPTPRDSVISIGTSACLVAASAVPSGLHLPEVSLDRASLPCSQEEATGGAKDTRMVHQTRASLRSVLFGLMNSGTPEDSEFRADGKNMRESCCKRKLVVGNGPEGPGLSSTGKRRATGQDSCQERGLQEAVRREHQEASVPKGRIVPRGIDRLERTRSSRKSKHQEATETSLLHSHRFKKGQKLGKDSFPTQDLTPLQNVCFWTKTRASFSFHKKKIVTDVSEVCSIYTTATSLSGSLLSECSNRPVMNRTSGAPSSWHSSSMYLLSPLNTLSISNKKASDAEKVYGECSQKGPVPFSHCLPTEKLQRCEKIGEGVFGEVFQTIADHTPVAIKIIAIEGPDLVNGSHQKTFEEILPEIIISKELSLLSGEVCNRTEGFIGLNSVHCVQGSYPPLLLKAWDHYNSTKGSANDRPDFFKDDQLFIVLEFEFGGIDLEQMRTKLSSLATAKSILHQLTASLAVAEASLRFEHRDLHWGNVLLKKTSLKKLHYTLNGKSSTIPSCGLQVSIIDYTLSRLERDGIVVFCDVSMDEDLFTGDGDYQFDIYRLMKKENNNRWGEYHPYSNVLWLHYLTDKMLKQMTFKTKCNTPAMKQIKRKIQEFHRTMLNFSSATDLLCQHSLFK

MAP4K3 = molecular target: T3, MAP4K3 (UniProt Q8IVH8)
T3 sequence (whole entry): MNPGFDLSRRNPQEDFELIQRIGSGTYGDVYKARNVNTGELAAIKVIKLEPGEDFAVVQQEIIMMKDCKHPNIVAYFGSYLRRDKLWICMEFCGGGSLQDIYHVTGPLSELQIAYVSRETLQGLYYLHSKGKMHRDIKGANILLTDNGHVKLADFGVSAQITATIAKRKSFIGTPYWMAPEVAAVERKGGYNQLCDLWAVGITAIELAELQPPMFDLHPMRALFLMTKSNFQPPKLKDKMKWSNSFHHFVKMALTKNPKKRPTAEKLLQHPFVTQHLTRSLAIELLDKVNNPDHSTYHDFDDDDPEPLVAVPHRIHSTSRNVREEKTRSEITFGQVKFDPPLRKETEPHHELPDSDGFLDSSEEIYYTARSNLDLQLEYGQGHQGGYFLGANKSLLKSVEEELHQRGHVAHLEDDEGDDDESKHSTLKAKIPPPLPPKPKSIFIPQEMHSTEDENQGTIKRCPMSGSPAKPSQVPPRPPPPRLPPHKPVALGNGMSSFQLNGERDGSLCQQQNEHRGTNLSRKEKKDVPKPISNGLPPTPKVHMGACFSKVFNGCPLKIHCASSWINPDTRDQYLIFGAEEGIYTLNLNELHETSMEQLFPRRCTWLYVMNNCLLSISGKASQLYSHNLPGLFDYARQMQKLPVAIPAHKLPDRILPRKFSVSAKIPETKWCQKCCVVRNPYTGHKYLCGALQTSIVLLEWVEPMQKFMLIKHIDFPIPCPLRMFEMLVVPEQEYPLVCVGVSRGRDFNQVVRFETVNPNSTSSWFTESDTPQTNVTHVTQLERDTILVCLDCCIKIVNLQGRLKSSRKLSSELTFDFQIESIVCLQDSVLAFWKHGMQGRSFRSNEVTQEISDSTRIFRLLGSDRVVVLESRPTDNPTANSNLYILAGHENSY

PRKCD = PRKCD (UniProt Q05655)

| apparent dissociation constant pKd app (-log10) (CHEK1) | apparent dissociation constant pKd app (-log10) (ERBB4) | apparent dissociation constant pKd app (-log10) (GSG2) | apparent dissociation constant pKd app (-log10) (MAP4K3) | apparent dissociation constant pKd app (-log10) (PRKCD) | SMILES |
| --- | --- | --- | --- | --- | --- |
| < 4.7 | < 4.5 | < 4.6 | < 4.6 | < 4.5 | NC(=O)c1cccc2cn(-c3ccc([C@@H]4CCCNC4)cc3)nc12 [Niraparib] |
| < 4.7 | < 4.5 | < 4.6 | < 4.6 | < 4.5 | O=C(c1cc(Cc2n[nH]c(=O)c3ccccc23)ccc1F)N1CCN(C(=O)C2CC2)CC1 [Olaparib] |
| < 4.7 | < 4.5 | < 4.6 | < 4.6 | < 4.5 | Cn1ncnc1[C@H]1c2n[nH]c(=O)c3cc(F)cc(c23)N[C@@H]1c1ccc(F)cc1 [Talazoparib] |
